Target: T1, Alpha-1A adrenergic receptor (Homo sapiens, UniProt P35348)
T1 sequence (P35348 whole entry): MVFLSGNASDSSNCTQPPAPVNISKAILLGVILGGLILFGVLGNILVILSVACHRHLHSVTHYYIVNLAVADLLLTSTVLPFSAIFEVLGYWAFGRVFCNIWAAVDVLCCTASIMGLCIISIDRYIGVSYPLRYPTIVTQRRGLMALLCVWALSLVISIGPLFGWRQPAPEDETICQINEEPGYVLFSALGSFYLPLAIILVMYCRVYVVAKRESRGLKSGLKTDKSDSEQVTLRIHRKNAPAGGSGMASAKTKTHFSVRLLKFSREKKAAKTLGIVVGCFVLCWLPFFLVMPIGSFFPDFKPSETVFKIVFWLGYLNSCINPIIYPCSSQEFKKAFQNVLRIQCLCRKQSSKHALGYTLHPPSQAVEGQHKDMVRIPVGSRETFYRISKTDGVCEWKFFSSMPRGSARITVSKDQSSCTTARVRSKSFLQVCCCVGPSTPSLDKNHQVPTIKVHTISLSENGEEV
Experiment: Displacement of [3H]prazosin from recombinant human alpha1a adrenergic receptor expressed in CHO cell membranes after 30 mins by TopCount liquid scintillation counting method
Summary of the method: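 Membranes from CHO cells stably expressing each human α1 subtype (70 µg protein), incubated in 50 mM Tris pH 7.4 with 0.1–0.4 nM [3H]prazosin and competitor (1 pM–1 µM) for 30 min at 25 °C. Nonspecific binding defined with 10 µM tamsulosin. Filtration and scintillation counting. Ki by Cheng–Prusoff; pKi mean of 2–3 experiments in duplicate.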

Ki: 389 nM
SMILES: COc1ccccc1N1CCN(CCN2C(=O)CC3(CCCC3)CC2=O)CC1 [BMY-7378]
